This note sets out measurements from patent publication US20020160988A1 (priority 2001, published 2002).

The target in data set [1] is recombinant human acetylcholineesterase (rHuAChE) (Homo sapiens, UniProt P22303). Put plainly: Inhibition of recombinant human AChE in vitro (Ellman). The following applies: Hu-AChE; for Ki: 25° C, dissociation constant. Background: In Ellman's method for cholinesterases, released thiocholine reacts with DTNB.
Data set [2] deals with human plasma butyrylcholinesterase (HuBChE) (Homo sapiens, UniProt P06276). Put plainly: Inhibition kinetics of human plasma BChE in vitro (Ellman). The following applies: Hu-BuChE; for Ki: 25° C, dissociation constant.
Data set [3] deals with mice. Put plainly: In vivo toxicity (LD50) and Therapeutic Index in mice. The following applies: for LD50 (mice i.p.): intraperitoneal, 24 hours.
Data set [4] addresses fetal bovine serum-AChE (FBS-AChE) (Bos taurus, UniProt P23795). Put plainly: Inhibition kinetics of fetal bovine serum AChE in vitro (Ellman). The following applies: for Ki: 25° C, dissociation constant.
Data set [5] concerns the target M1 muscarinic receptors (Rattus norvegicus, UniProt P08482). The experiment in a line: Displacement of [^3H]pirenzepine from rat brain. The conditions noted are these: L = 1.7 nM, KD = 13.9 nM.
Data set [6] deals with M2 muscarinic receptors (Rattus norvegicus, UniProt P10980). Put plainly: Displacement of [^3H]AFDX-346 from rat brain. The conditions noted are these: [^3H]AFDX-346, L = 0.49 nM, KD = 5 nM.

With `CC(=O)Oc1ccccc1C(=O)OCCCCCCCC[n+]1cccc(OC(=O)N(C)C)c1`, in data set [1], the “K′” value came to 0.42 min⁻¹, the “ki (bimolecular rate constant)” value is listed as 2.2 × 10^6 M^−1m^−1, the “ks × 10^3” value amounted to 12.6 minutes^−1 and the Ki amounted to 190 nM. For the same compound, in data set [2], the “K′” value came out at 0.04 min⁻¹, the “ki (bimolecular rate constant)” value is 8.0 × 10^4 M^−1m^−1, the “ks × 10^3” value was found to be 0.7 minutes^−1 and the Ki came out at 490 nM. Further, the “LD50 (mice i.p.)” value in data set [3] is reported as 47.7 mg/kg. In data set [4], the “K′” value is 0.21 min⁻¹, the “ki (bimolecular rate constant)” value is on record as 1.3 × 10^6 M^−1m^−1, the “ks × 10^3” value amounted to 21 minutes^−1 and the Ki was found to be 160 nM.
Take `CC(C)Cc1ccc(C(C)C(=O)OCCCCCCCC[n+]2cccc(OC(=O)N(C)C)c2)cc1` (stereo not drawn): the “K′” value amounted to 2.2 min⁻¹ in data set [1], 1.5 min⁻¹ in data set [2] and 1.1 min⁻¹ in data set [4]. Moreover, the “ki (bimolecular rate constant)” value is recorded as 1.3 × 10^6 M^−1m^−1 in data set [1], 2.0 × 10^5 M^−1m^−1 in data set [2] and 4.8 × 10^5 M^−1m^−1 in data set [4]. Also, the “ks × 10^3” value in data set [1] was determined as 22 minutes^−1; in data set [2], 3.6 minutes^−1; in data set [4] it was 20 minutes^−1. In addition, the Ki came out at 1700 nM in data set [1]; 510 nM in data set [5]; 440 nM in data set [6]; 7500 nM in data set [2]; 2200 nM in data set [4]. Further, the values for the IC50 in data set [5] and in data set [6] were 570 nM and 480 nM, respectively. For the same compound, the “Therapeutic Index (TI = LD50/ED50)” value in data set [3] (ED50 = dose causing 50% ChE inhibition in blood) came to 15.3.
Consider `COc1ccc2c(c1)c(CC(=O)OCCCCCCCC[n+]1cccc(OC(=O)N(C)C)c1)c(C)n2C(=O)c1ccc(Cl)cc1`, for which, in data set [1], the “K′” value stood at 0.45 min⁻¹, the “ki (bimolecular rate constant)” value was 2.8 × 10^6 M^−1m^−1, the “ks × 10^3” value was found to be 45 minutes^−1 and the inhibition constant (Ki) came out at 160 nM. Further, in data set [3], the “LD50 (mice i.p.)” value turned out to be 35 mg/kg. For the same compound, in data set [4], the “K′” value was 1.4 min⁻¹, the “ki (bimolecular rate constant)” value is listed as 8.6 × 10^4 M^−1m^−1, the “ks × 10^3” value was determined as 5.5 minutes^−1 and the Ki was determined as 16000 nM.
Take `CC(C)Cc1ccc([C@H](C)C(=O)OCCCCCCCC[n+]2cccc(OC(=O)N(C)C)c2)cc1`: in data set [1], the “K′” value was determined as 0.32 min⁻¹, the “ki (bimolecular rate constant)” value is listed as 2.7 × 10^5 M^−1m^−1 and the “ks × 10^3” value amounted to 29 minutes^−1.

In general, Ki refers to the equilibrium dissociation constant of an inhibitor or competing ligand from its target. For orientation: IC50 means the concentration that inhibits the measured activity by half. A lower IC50 goes with higher potency.
